# Source: patent publication EP4603105A1, “PHARMACEUTICAL COMPOSITION CONTAINING CYCLIC COMPOUND HAVING SELECTIVE KRAS INHIBITORY EFFECT AGAINST HRAS AND NRAS” (CHUGAI SEIYAKU KABUSHIKI KAISHA, priority 2022, dated 2024)
# Read-outs that look alike come from different tables or passages of the source.
# What was measured:
# [1] = target: GDP-bound KRAS wild-type protein (Homo sapiens, UniProt P01116); assay: Binding to KRAS by surface plasmon resonance (SPR), dissociation constant KD
# Description: (§1) Surface plasmon resonance was used to analyze the binding affinity of compounds for KRAS, NRAS, and HRAS. The apparatus used was Biacore 8K, 8K+, or T200 (GE Healthcare), and the running buffer used was HBS (10 mM HEPES-NaOH, 150 mM NaCl, pH 7.4) containing 1 mM DTT, 10 mM MgCl2, 0.01% Tween 20, 10 µM GDP, and 4% DMSO.
# (§2) Biotinylated Avi-tag fusion KRAS, NRAS, and HRAS proteins were expressed in E. coli BL21 (DE3) strains, and after cells were homogenized, they were purified using Streptavidin Mutein Matrix and Superdex 75. After purification, GDP-loaded KRAS, NRAS, and HRAS proteins were immobilized on the surface of Sensor Chip CAP (Cytiva) coated with Biotin CAPture Reagent in an immobilization amount of about 100 to 300 RU. Binding of each compound was evaluated by the Single Cycle Kinetics method, and a running buffer or a compound solution was added to the RAS protein non-immobilized surface and the immobilized surface to obtain a binding response. The flow rate was set to 100 µL/min, and in the compound-adding cycle, compound solutions having different concentrations were intermittently added for 75 seconds each, starting from a low concentration. […] In the blank cycle, a running buffer was intermittently added and not the compound solution. The Biotin CAPture Reagent and RAS proteins were immobilized for each cycle, and at the end of each cycle, the sensor chip was regenerated by the regeneration solution appended to the Biotin CAPture Kit (Cytiva). Measurement was carried out at 30°C.
# (§3) The resulting sensorgram was subjected to curve fitting based on a 1:1 binding model on Biacore Insight Evaluation Software or T200 Evaluation Software, and thereby the dissociation constant KD of each compound with respect to KRAS, NRAS, and HRAS was determined. […] Blank indicates a compound from which the KD value with respect to NRAS or HRAS was not obtained.
# [2] = target: GDP-bound NRAS wild-type protein (Homo sapiens, UniProt P01111); assay: Binding to NRAS by surface plasmon resonance (SPR), KD and KD ratio to KRAS
# Description: as §1, §2, §3
# [3] = target: HRAS wild-type protein (Homo sapiens, UniProt P01112); assay: Binding to HRAS by surface plasmon resonance (SPR), KD and KD ratio to KRAS
# Description: as §1, §2, §3
# [4] = tested on: human lung cancer strain NCI-H441; type: cell-based; conditions: NCI-H441 cells, CellTiter-Glo, read-out: NCl-H441 IC50
# Description: A test compound was dispensed into a U-bottom 384-well plate as 40 nL serially diluted dimethyl sulfoxide solutions using a liquid handler Echo (LABCYTE). […] This cell suspension was dispensed in an amount of 40 µL per well into a plate containing the test compound, and cultured at 37°C in a 5% carbon dioxide gas incubator. Four days later, 20 µL of CellTiter-Glo (registered trademark) (Promega) was added to each well and […] was measured. […]
# [5] = tested on: human lung cancer strain NCI-H441; assay: NCI-H441 cell proliferation inhibitory activity (CellTiter-Glo, 4 days); type: cell-based; conditions: NCI-H441 cells, read-out: NCl-H441 IC50
# Description: A test compound was dispensed into a U-bottom 384-well plate as 40 nL serially diluted dimethyl sulfoxide solutions using a liquid handler Echo (LABCYTE). As for human lung cancer strain NCI-H441 (ATCC), a cell suspension was prepared so as to have 250 cells/40 µL in an RPMI-1640 medium (Sigma) supplemented with 10% fetal bovine serum (Sigma), a 2.5 g/L D-(+)-glucose solution, 10 mmol/L HEPES, and 1 mmol/L sodium pyruvate. This cell suspension was dispensed in an amount of 40 µL per well into a plate containing the test compound, and cultured at 37°C in a 5% carbon dioxide gas incubator. Four days later, 20 µL of CellTiter-Glo (registered trademark) (Promega) was added to each well and […] was measured. […]
# [6] = Single Cycle Kinetics, 1:1 binding model
# [7] = ratio of KD for GDP-bound NRAS wild-type protein to KD for KRAS
# [8] = ratio of KD for HRAS wild-type protein to KD for KRAS
smiles,measurement,setting,value
CCO[C@@H]1C[C@H]2C(=O)NC3(CCC3)C(=O)N(C)[C@@H](C3CCCC3)C(=O)N(C)[C@H](C(=O)N(C)C)CC(=O)N(C)[C@@H](CC3CCCC3)C(=O)N[C@@H]([C@@H](C)CC)C(=O)N(C)CC(=O)N(C)[C@H]3C/C=C\CCN(C3=O)[C@@H](CC3CCCCC3)C(=O)N(C)CC(=O)N[C@@H](CCc3cc(F)c(C(F)(F)F)c(F)c3)C(=O)N2C1 [PP1472],Kd,[1]; [6],0.14 nM
CCC[C@H]1C(=O)N[C@@H]([C@@H](C)CC)C(=O)N(C)CC(=O)N(C)[C@H]2C/C=C\CCN(C2=O)[C@@H](Cc2ccc(C)cc2)C(=O)N(C)CC(=O)N[C@@H](CCc2cc(F)c(C(F)(F)F)c(F)c2)C(=O)N2CC3(CC3)C[C@H]2C(=O)NC2(CC(C)(C)C2)C(=O)N(C)[C@@H](CC(C)C)C(=O)N(C)[C@H](C(=O)N(C)C)CC(=O)N1C [PP3004],Kd,[1],0.41 nM
same,NRAS /KRAS,[2]; [7],A (a compound having 10 or more and less than 20 is denoted as A)
same,HRAS /KRAS,[3]; [8],A (a compound having 10 or more and less than 20 is denoted as A)
same,IC50,[4]; 4 days,19.2 nM
CCO[C@@H]1C[C@H]2C(=O)NC3(CCC3)C(=O)N(C)[C@@H](C3CCCC3)C(=O)N(C)[C@H](C(=O)N3CCCC3)CC(=O)N(C)[C@@H](CC3CCC3)C(=O)N[C@@H]([C@@H](C)CC)C(=O)N(C)CC(=O)N(C)[C@H]3C/C=C\CCN(C3=O)[C@@H](Cc3ccc(C(F)(F)F)cc3)C(=O)N(C)CC(=O)N[C@@H](CCc3cc(F)c(C(F)(F)F)c(F)c3)C(=O)N2C1 [PP1423],Kd,[1]; [6],0.14 nM
CCC[C@H]1C(=O)N[C@@H]([C@@H](C)CC)C(=O)N(C)CC(=O)N(C)[C@H]2C/C=C\CCN(C2=O)[C@@H](CC2CCC(F)(F)CC2)C(=O)N(C)CC(=O)N[C@@H](CCc2cc(F)c(C(F)(F)F)c(F)c2)C(=O)N2C[C@H](OCC)C[C@H]2C(=O)NC2(CCC2)C(=O)N(C)[C@@H](C2CCCC2)C(=O)N(C)[C@H](C(=O)N(C)C)CC(=O)N1C [PP1450],Kd,[1]; [6],0.14 nM
CCO[C@@H]1C[C@H]2C(=O)NC3(CCC3)C(=O)N(C)[C@@H](C3CCCC3)C(=O)N(C)[C@H](C(=O)N(CC)CC)CC(=O)N(C)[C@@H](CC3CC3)C(=O)N[C@@H]([C@@H](C)CC)C(=O)N(C)CC(=O)N(C)[C@H]3C/C=C\CCN(C3=O)[C@@H](Cc3ccc(C(F)(F)F)cc3)C(=O)N(C)CC(=O)N[C@@H](CCc3cc(F)c(C(F)(F)F)c(F)c3)C(=O)N2C1 [PP1307],NRAS /KRAS,[2]; ratio of KD with respect to GDP-bound NRAS wild-type protein to KD with respect to KRAS,A (a compound having 10 or more and less than 20 is denoted as A)
same,HRAS /KRAS,[3]; ratio of KD with respect to HRAS wild-type protein to KD with respect to KRAS,A (a compound having 10 or more and less than 20 is denoted as A)
CC[C@H](C)[C@@H]1NC(=O)[C@H](CC)N(C)C(=O)C[C@@H](C(=O)N(C)C)N(C)C(=O)[C@H](C2CCCC2)N(C)C(=O)C2(CCC2)NC(=O)[C@@H]2C[C@@H](C(F)(F)F)CN2C(=O)[C@H](CCc2cc(F)c(C(F)(F)F)c(F)c2)NC(=O)CN(C)C(=O)[C@H](CC2CCC(F)(F)CC2)N2CC/C=C\C[C@@H](C2=O)N(C)C(=O)CN(C)C1=O [PP1451],Kd,[1]; [6],0.14 nM
CCCC[C@H]1C(=O)N[C@@H]([C@@H](C)CC)C(=O)N(C)CC(=O)N(C)[C@H]2C/C=C\CCN(C2=O)[C@@H](Cc2ccc(C(F)(F)F)cc2)C(=O)N(C)CC(=O)N[C@@H](CCc2cc(F)c(C(F)(F)F)c(F)c2)C(=O)N2C[C@H](OCC)C[C@H]2C(=O)NC2(CCC2)C(=O)N(C)[C@@H](C2CCCC2)C(=O)N(C)[C@H](C(=O)N2CCCC2)CC(=O)N1C [PP1396],Kd,[1]; [6],0.14 nM
CCO[C@@H]1C[C@H]2C(=O)NC3(CCC3)C(=O)N(C)[C@@H](C3CCCC3)C(=O)N(C)[C@H](C(=O)N(C)C)CC(=O)N(C)[C@@H](CC(C)C)C(=O)N[C@@H]([C@@H](C)CC)C(=O)N(C)CC(=O)N(C)[C@H]3CC(C)=C(C)CN(C3=O)[C@@H](Cc3ccc(C(F)(F)F)cc3)C(=O)N(C)CC(=O)N[C@@H](CCc3cc(F)c(C(F)(F)F)c(F)c3)C(=O)N2C1 [PP1046],Kd,[1],0.38 nM
same,NRAS /KRAS,[2]; [7],C (A compound having a KD ratio of 0.1 or more and less than 3 is denoted as C)
same,HRAS /KRAS,[3]; [8],C (A compound having a KD ratio of 0.1 or more and less than 3 is denoted as C)
same,IC50,[4]; four days,109 nM
CCO[C@@H]1C[C@H]2C(=O)NC3(CCC3)C(=O)N(C)[C@@H](C3CCCC3)C(=O)N(C)[C@H](C(=O)N(C)C)CC(=O)N(C)[C@@H](CC)C(=O)N[C@@H]([C@@H](C)CC)C(=O)N(C)CC(=O)N(C)[C@H]3C/C=C\CCN(C3=O)[C@@H](CC3CCCCC3)C(=O)N(C)CC(=O)N[C@@H](CCc3cc(F)c(C(F)(F)F)c(F)c3)C(=O)N2C1 [PP1466],Kd,[1]; [6],0.14 nM
CCO[C@@H]1C[C@H]2C(=O)NC3(COC3)C(=O)N(C)[C@@H](C3CCCC3)C(=O)N(C)[C@H](C(=O)N(C)C)CC(=O)N(C)[C@@H](CC)C(=O)N[C@@H]([C@@H](C)CC)C(=O)N(C)CC(=O)N(C)[C@H]3C/C=C\CCN(C3=O)[C@@H](Cc3ccc(C(F)(F)F)cc3)C(=O)N(C)CC(=O)N[C@@H](CCc3cc(F)c(C(F)(F)F)c(F)c3)C(=O)N2C1 [PP1278],Kd,[1]; [6],0.14 nM
CCO[C@@H]1C[C@H]2C(=O)NC3(CCC3)C(=O)N(C)[C@@H](C3CCCC3)C(=O)N(C)[C@H](C(=O)N3CCOCC3)CC(=O)N(C)[C@@H](CC)C(=O)N[C@@H]([C@@H](C)CC)C(=O)N(C)CC(=O)N(C)[C@H]3C/C=C\CCN(C3=O)[C@@H](Cc3ccc(C(F)(F)F)cc3)C(=O)N(C)CC(=O)N[C@@H](CCc3ccc(C(F)(F)F)c(Cl)c3)C(=O)N2C1 [PP1281],Kd,[1]; [6],0.14 nM
CC[C@H](C)[C@@H]1NC(=O)[C@H](COC)N(C)C(=O)C[C@@H](C(=O)N(C)CC)N(C)C(=O)[C@H](C2CCCC2)N(C)C(=O)C2(CC(C)(C)C2)NC(=O)[C@@H]2C[C@H](C)CN2C(=O)[C@H](CCc2ccc(C(F)(F)F)c(OC)c2)NC(=O)CN(C)C(=O)[C@H](Cc2ccc(C)cc2)N2CC/C=C\C[C@@H](C2=O)N(C)C(=O)CN(C)C1=O [PP2504],IC50,[5],12.9 nM
CCC[C@H]1C(=O)N[C@@H]([C@@H](C)CC)C(=O)N(C)CC(=O)N(C)[C@H]2C/C=C\CCN(C2=O)[C@@H](Cc2ccc(C(F)(F)F)cc2)C(=O)N(C)CC(=O)N[C@@H](CCc2cc(F)c(C(F)(F)F)c(F)c2)C(=O)N2C[C@H](OCC)C[C@H]2C(=O)NC2(CCC2)C(=O)N(C)[C@@H](C2CCCC2)C(=O)N(C)[C@H](C(=O)N2CCCC2)CC(=O)N1C [PP1299],Kd,[1]; [6],0.14 nM
